Test results reported in ChEMBL document CHEMBL1137082, “Potent and selective conformationally restricted neuronal nitric oxide synthase inhibitors” (J Med Chem, 2004).

Molecular target: T1, Nitric oxide synthase 3 (Bos taurus, UniProt P29473)
T1 sequence (P29473 whole entry): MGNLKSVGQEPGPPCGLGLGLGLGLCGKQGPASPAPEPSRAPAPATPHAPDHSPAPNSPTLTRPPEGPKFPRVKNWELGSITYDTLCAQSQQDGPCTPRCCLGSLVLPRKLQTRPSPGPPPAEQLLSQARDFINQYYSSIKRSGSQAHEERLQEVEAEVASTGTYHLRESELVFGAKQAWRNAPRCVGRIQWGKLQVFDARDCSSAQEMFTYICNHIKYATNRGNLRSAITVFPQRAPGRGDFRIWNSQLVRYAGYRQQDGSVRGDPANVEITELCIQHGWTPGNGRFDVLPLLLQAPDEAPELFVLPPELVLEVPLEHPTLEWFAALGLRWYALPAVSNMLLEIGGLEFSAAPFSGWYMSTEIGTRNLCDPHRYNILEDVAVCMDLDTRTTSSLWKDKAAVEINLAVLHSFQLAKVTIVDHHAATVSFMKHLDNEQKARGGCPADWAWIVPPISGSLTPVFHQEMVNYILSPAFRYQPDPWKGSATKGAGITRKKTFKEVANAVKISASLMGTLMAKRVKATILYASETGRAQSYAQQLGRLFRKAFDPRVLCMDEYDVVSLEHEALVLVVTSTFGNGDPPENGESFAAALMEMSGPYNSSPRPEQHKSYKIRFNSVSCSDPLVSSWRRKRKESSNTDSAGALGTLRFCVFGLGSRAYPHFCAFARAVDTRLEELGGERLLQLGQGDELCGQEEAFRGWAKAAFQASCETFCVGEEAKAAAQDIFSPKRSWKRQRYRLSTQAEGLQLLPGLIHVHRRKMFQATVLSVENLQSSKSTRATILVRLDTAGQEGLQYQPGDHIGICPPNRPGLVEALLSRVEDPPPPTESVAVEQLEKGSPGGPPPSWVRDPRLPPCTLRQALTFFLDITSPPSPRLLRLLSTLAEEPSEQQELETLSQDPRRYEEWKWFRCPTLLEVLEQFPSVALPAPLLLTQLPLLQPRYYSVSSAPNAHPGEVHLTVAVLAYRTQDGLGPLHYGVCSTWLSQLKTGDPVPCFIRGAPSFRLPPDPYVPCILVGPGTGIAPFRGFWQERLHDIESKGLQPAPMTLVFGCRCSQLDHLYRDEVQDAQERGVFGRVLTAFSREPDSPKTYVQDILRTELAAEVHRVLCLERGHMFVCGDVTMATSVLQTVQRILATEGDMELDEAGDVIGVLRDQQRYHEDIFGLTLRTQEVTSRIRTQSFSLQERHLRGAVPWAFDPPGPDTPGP
Assay: Inhibitory activity against endothelial nitric oxide synthase (eNOS)

| SMILES | IC50 |
| --- | --- |
| N=C(NCCC[C@H](N)C(=O)NC1CNC(C(N)=O)C1)N[N+](=O)[O-] (single isomer, unassigned) | 760 µM |
| NC(=O)[C@@H]1C[C@@H](NC(=O)[C@@H](N)CCC/N=C(\N)N[N+](=O)[O-])CN1 | 880 µM |
